1 molecule from patent US6399603B1, “Therapeutic heterocycles” (AstraZeneca AB, priority 1999, dated 2002) can be followed below.

This experiment addresses T1, recombinant human caspase-3 (Homo sapiens, UniProt P42574).
T1 construct: individual p17 and p12 subunits were subcloned by PCR into pET21a(+) plasmids; made in house; host or cells: E. coli BL21 (DE3)
T1 sequence (P42574 29-175 limits assumed): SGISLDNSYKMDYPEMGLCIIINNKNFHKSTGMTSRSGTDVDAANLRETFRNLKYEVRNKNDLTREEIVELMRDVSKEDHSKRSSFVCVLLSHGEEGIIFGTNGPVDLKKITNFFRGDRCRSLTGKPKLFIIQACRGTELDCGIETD
T1 sequence (P42574 176-277 limits assumed): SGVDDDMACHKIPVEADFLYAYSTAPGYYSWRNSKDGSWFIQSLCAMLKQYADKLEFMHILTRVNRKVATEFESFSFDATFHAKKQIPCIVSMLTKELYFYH
The experiment is described as follows: Caspase-3 Inhibition Assay. The format is biochemical. The settings on record: slow binding inhibitor analysis; substrate Ac-DEVD-AMC 10 μM; n=100; read-out: apparent affinity constant Ki′ (koff/kon).

Take `CC(=O)N[C@@H](CC(=O)O)C(=O)N[C@@H](CCC(=O)O)C(=O)N[C@H](C(=O)N[C@H](C=O)CC(=O)O)C(C)C` [Ac-DEVD-CHO]: the Ki was found to be 6.1 ± 0.3 nM.
